The structures appear in SMILES notation. Only a part is listed here, and it is no random draw. Active and inactive are the calls of the source.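 The calls were made as follows: active = at 10 µM dose, activation of 40% or more, normalized to positive control; inactive = the rest.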

The values that follow come from PubChem BioAssay AID449763 (Sanford-Burnham Center for Chemical Genomics, 2010).

This assay in a line: PERK-eIF2a-CHOP pathway stimulators – cell-based, CHO-CHOP luciferase reporter, luminescence, uHTS, primary screen (AID 449763).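 Also: 100% = tunicamycin at 10 µg/mL and 0% = DMSO alone.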 The note with it: UPR activation, at 10 µM, stronger effect = higher value, percent of tunicamycin response over DMSO baseline. The procedure, abridged: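 Test system: CHO CHOP reporter cells. Input: 500 CHO-CHOP cells per well. Medium: F12 with 10% FBS. Technique: luciferase luminescence. Measure: percent activation relative to tunicamycin control. Dosing: 10 µM compound, 0.5% DMSO. Timing: 16-18 h cell attachment, then 6 h compound exposure, 37 °C.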
As to `Cc1cc(C)cc(OP(C)(=O)Nc2ccccn2)c1` (stereo not given), the activation is inactive: 0.596%.
With `CP(=O)(Nc1cccc(Br)c1)Oc1ccccc1` (stereo not given), the activation was inactive: -1.02%.
On to `Cc1ccc(C)c(NP(C)(=O)Oc2ccccc2)c1` (stereo not given), for which the activation is inactive: 0.237%.
For `Cc1cc(C)cc(OP(C)(=O)Nc2ccc(C)cc2C)c1` (stereo not given), the activation was inactive: -0.349%.
Regarding `CCOC(=O)c1ccc(NP(C)(=O)Oc2cc(C)cc(C)c2)cc1` (stereo not given), the activation is inactive: 0.133%.
As for `COc1ccccc1OP(C)(=O)Nc1cccc(Br)c1` (stereo not given), the activation was inactive: -0.0236%.
For `CC1=NCCc2c1[nH]c1ccccc21.O=[N+]([O-])c1cc([N+](=O)[O-])c(O)c([N+](=O)[O-])c1`, the activation is inactive: -0.821%.
Regarding `O=C(O)c1cccc(Nc2c([N+](=O)[O-])cc([N+](=O)[O-])cc2[N+](=O)[O-])c1`, the activation is inactive: 1.33%.
Regarding `CCCOc1ccc(NP(C)(=O)Oc2ccc(Cl)cc2)cc1` (stereo not given), the activation was inactive: 4.73%.
On to `CP(=O)(Nc1ccc(SC(F)(F)F)cc1)Oc1ccccc1` (stereo not given), for which the activation was inactive: 1.93%.
Take `COc1ccccc1OP(C)(=O)Nc1c(C)cccc1C` (stereo not given): the activation was inactive: 0.898%.
For `CN1CCCCC1COC(=O)C1(O)c2ccccc2CCc2ccccc21` (stereo not given), the activation was inactive: 2.1%.
The figure for `CCOC(=O)C(CC)C1=NC(C)(C)Cc2ccccc21.O=[N+]([O-])c1cc([N+](=O)[O-])c(O)c([N+](=O)[O-])c1` (stereo not given) is inactive: 0.776%; for `CC1=C2N=C(C=C3N=C(C(C)=C4[N-][C@@](C)([C@@H]5N=C1[C@](C)(CCC(=O)NC[C@@H](C)OP(=O)([O-])O[C@H]1[C@@H](O)[C@@H](n6cnc7cc(C)c(C)cc76)O[C@@H]1CO)[C@H]5CC(N)=O)[C@@](C)(CC(N)=O)[C@@H]4CCC(N)=O)[C@@](C)(CC(N)=O)[C@@H]3CCC(N)=O)C(C)(C)[C@@H]2CCC(N)=O.[C-]#N.[Co+3]` it is inactive: -3.11%; for `O=[N+]([O-])c1cc([N+](=O)[O-])c(Nc2nnnn2CCO)c([N+](=O)[O-])c1` it is inactive: 1.23%.
`Cc1nc2ccc3ccccc3c2s1.O=[N+]([O-])c1cc([N+](=O)[O-])c(O)c([N+](=O)[O-])c1`: the activation is inactive: 3.56%.
Regarding `O=[N+]([O-])c1cc([N+](=O)[O-])c(-c2cnn(-c3ccccc3)c2)c([N+](=O)[O-])c1`, the activation was inactive: 9.16%.
As to `O=[N+]([O-])c1cc([N+](=O)[O-])c(-n2nnc3ccccc32)c([N+](=O)[O-])c1`, the activation was inactive: 3.2%.
Regarding `CP(=O)(Nc1ccccn1)Oc1ccc(Cl)cc1` (stereo not given), the activation is inactive: 0.63%.
For the compound `CCOP(C)(=S)SCC(=O)NC(C)C(=O)O` (stereo not given), the activation is inactive: 0.465%.
